These are literature values, as cited in paper PMC2783503 (Journal of medicinal chemistry, 2009).

Amino acid sequences for entries named in this document (tags omitted). A change or cut given only in a name is not applied to a line headed by its entry.
UniProt P41144: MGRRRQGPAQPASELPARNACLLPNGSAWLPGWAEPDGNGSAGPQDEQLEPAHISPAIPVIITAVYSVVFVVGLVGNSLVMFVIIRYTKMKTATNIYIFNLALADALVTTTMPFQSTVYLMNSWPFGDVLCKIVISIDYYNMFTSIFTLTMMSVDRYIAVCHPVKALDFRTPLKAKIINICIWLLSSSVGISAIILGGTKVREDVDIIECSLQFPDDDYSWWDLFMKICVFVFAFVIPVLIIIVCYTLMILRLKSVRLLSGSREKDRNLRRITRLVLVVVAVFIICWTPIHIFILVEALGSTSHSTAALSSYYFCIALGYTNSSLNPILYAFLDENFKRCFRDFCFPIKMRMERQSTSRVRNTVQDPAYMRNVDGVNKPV
UniProt P33533, whole entry: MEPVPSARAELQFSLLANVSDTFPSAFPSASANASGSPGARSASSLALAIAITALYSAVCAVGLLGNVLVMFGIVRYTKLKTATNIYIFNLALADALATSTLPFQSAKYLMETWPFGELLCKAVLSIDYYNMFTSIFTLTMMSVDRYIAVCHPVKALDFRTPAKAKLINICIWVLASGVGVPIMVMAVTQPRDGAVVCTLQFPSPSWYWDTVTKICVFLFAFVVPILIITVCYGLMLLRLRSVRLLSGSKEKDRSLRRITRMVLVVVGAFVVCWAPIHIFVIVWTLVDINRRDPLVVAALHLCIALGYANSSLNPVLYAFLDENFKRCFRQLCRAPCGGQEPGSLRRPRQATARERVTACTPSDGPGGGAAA
UniProt P33535, whole entry: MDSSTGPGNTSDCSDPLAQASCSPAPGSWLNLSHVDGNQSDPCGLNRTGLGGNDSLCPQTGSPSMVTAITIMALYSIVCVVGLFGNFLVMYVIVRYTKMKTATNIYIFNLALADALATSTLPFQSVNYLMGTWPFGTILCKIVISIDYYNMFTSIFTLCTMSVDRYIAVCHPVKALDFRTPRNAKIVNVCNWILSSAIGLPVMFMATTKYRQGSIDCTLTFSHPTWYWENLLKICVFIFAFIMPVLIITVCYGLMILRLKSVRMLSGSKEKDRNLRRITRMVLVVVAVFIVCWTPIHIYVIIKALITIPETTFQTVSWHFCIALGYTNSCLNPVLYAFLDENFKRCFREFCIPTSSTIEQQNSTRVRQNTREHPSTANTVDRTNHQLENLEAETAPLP

For one data set, the target named is κ opioid receptor (UniProt P41144). To be noted: read-out: Ki^κ; ref Schiller et al.[10]; cited from earlier work.
The target in the next data set is δ opioid receptor (Rattus norvegicus, UniProt P33533). To be noted: read-out: Ki^δ; ref Schiller et al.[10]; cited from earlier work.
The next data set has as its target μ opioid receptor (UniProt P33535). Conditions: read-out: Ki^μ; ref Schiller et al.[10]; cited from earlier work.

The Ki is the dissociation constant of the complex between target and ligand, obtained from inhibition or displacement. With H-Dmt-Tic-Phe-Phe-OH [compound 10], the Ki on κ opioid receptor is greater than 1000 nM; at δ opioid receptor it was 0.248 ± 0.046 nM.
Consider H-Tyr-Tic-Phe-Phe-OH [compound 8], for which the Ki is greater than 1000 nM on κ opioid receptor, 1720 ± 50 nM on μ opioid receptor and 1.22 ± 0.07 nM on δ opioid receptor.
